# PMC7746742, “The novel rexinoid MSU-42011 is effective for the treatment of preclinical Kras-driven lung cancer” (Scientific Reports, 2020)
# Tests used:
# [1] = test system: immune cells in tumor-bearing lungs; experiment: Flow cytometry of immune cell populations in the lung; conditions: 12 weeks of treatment, in comparison to the controls
# From the text: RXR and its nuclear receptor partners are known to regulate migration and activity of macrophages and other immune cells. […] However, treatment with the combination of MSU-42011 and C/P was associated with a decrease in CD206, a marker of tumor-promoting macrophages, on alveolar macrophages as measured by mean fluorescence intensity. This decrease was statistically significant (p = 0.0038) in comparison to treatment with MSU-42011 alone. The flow cytometry results were confirmed by IHC staining for F4/80 (a general marker for macrophages) and CD206. Alveolar macrophages promote tumor growth and are sensitive to chemotherapy.
# The same two lobes of the right lung were harvested from each A/J mouse (n = 6/group) for flow cytometry and incubated in digestion media consisting of collagenase (300 U/ml, Sigma), dispase (1 U/ml, Worthington), and DNAse (2 U/ml, Calbiochem) for 30 min at 37 °C with stirring. Cells were then passed through a 40 µm cell strainer (BD Falcon), and red blood cells eliminated with lysis solution. […] Cells were analyzed using a Cytek Aurora equipped with 5 lasers (UV 355 nm, violet 405 nm, blue 488 nm, yellow-green 561 nm, and red 640 nm) and FlowJo x.10.0.7r2 software (Tree Star). […]
# [2] = Steady state drug levels in plasma after 12 weeks on diet (HPLC-MS); conditions: 100 mg/kg diet for 12 weeks, LC-MS, n = 8, mean ± SE
# Description: (§1) Blood was collected via cardiac puncture into 1 ml lithium heparin tubes (Greiner Bio-one). Blood was centrifuged at 5000 g for 5 min at 4 °C. Plasma was separated and frozen at − 80 °C until processed as described. Acetonitrile was added to precipitate plasma proteins. Samples were centrifuged at 14,000 g for 5 min, and the supernatant was filtered with a 0.2 µm syringe filter. Each sample was dried overnight and reconstituted in 200 µl of 50:50 methanol:water solution for analysis via HPLC. HPLC was performed on a Quatro Premier instrument with an Ascentis Express C18 column and an Acquity UPLC system. The mobile phase A consisted of 10 mM aq. ammonium acetate and the mobile phase B consisted of methanol. The following gradient was applied 99–5% A (0–4 min), 5% A (4–5.1 min), 5–99% A (5.1–6 min). The flow rate was 0.3 ml/minute, and bexarotene and MSU-42011 were detected at ~ 4.5 min. A standard curve was prepared by processing plasma from untreated animals and spiking the samples with 0.1–3 μM of the appropriate rexinoid then reconstituting the samples.
# A549 lung cancer cells = experiment: MTT proliferation assay; conditions: 0–1 μM rexinoids, 72 hr
# Description: were treated with 0-1 μM rexinoids for 72 hr. Proliferation was measured using the MTT assay.
# MTT Assay. A549 cells were plated in 96-well plates (2,000 cells/well). After overnight attachment, cells were treated with 2 fold dilutions (0-1000 nM rexinoids) for 72 hr. 50 μL 3-(4,5-dimethylthiazol-2-yl)-2,5-diphenyltetrazolium bromide (MTT; Sigma M2128) was added to each well, and cells were incubated at 37 °C for 4 hr. Media was removed and cells were lysed with developing solution (0.04 M HCl in isopropanol). Plates were read at 550 nm.
# (also on this page, place not known: 110A549 Cell Proliferation (% DMSO Control) 37°C)
# iNOS = iNOS inhibition assay (LPS-induced NO production, Griess reaction); conditions: read-out: iNOS suppression IC50; RAW264.7 cells, 0–1000 nM rexinoids, LPS 1 ng/ml 24 h, NO by Griess assay; mean ± SE of 3 experiments
# Description: To evaluate the anti-inflammatory effects of the novel rexinoids, we utilized the iNOS suppression assay. Inhibition of iNOS in vitro directly correlates with efficacy in our preclinical model of Kras-driven lung cancer. RAW264.7 macrophage-like cells were treated with 0–1 μM rexinoids and stimulated with 1 ng/mL lipopolysaccharide for 24 h, and then NO was measured in the media.
# RAW264.7 cells were plated in 96-well plates (20,000 cells/well). After overnight attachment, cells were treated with twofold serial dilutions (0–1000 nM) of rexinoids. After a 20 min incubation at 37 °C, cells were stimulated with 1 ng/mL LPS for 24 h. NO production was measured in culture medium using the Griess reaction. IC50 values were calculated using GraphPad Prism 8.1.2 software for Windows using a log([nM drug concentration]) vs. response curve fit.
# [3] = Mouse weights as a marker of drug toxicity; conditions: rexinoids in diet; initial week 6, final week 20
# From the text: Mouse weights were monitored as a marker of drug toxicity (Supplemental Fig. 3). The rexinoids were well-tolerated when fed in diet, as the mice in the control, bexarotene, and MSU-42011 groups all gained weight as expected during the study. There were no significant differences in the average weights between groups of mice on single drugs.
# Control Bexarotene 42011 C/P Bex + C/P 42011 + C/P
# Initial weight Final weight
# Supplemental Fig 3: Mouse weights. A/J mice were weighed weekly during the study. Values shown represent average mouse weights (n = 14-15/group) before treatment diets (initial weight at week 6) and at the end of the study (final weight at week 20). * p < 0.01 compared to control, # p < 0.01 compared to bexarotene, ! p < 0.05 compared to MSU-42011 (one-way ANOVA followed by Tukey HSD); ** p < 0.05, *** p < 0.01 (two-tailed t test).
# Kras-driven lung tumors [4] = experiment: Immunohistochemistry and H&E histology of lung tumors; conditions: 12 weeks of treatment
# From the text: At the end of the treatment study, lungs were harvested, sectioned, stained by H&E and randomized to blind the identity of the treatment group until all slides had been analyzed. Tumors were graded as described[46],[52] for nuclear and histological severity and given a grade of either low, medium, or high. Tumors assigned a low nuclear grade have smaller, more regular nuclei, while tumors in the high nuclear grade have enlarged, irregular nuclei with visible chromatin condensation and mitotic figures. Tumors in the low histological grade have space between cells, while tumors with a high histological grade are dense and obliterative, with very little to no space between tumor cells. […] There were no differences in tumor grades between bexarotene-treated mice and the controls. Importantly, MSU-42011 induced a notable change in the histological organization of tumors characterized by a loss of cells and increased acellular space within the tumor borders (Fig. 3B).
# Paraffin blocks of the left lobe of the lung were sectioned, and hydrogen peroxide was used to quench endogenous peroxidase activity. Sections were immunostained with antibodies against CD206 (1:200, Abcam), CD8 (1:40, 53–6.7, Biolegend), cleaved caspase 3 (1:100, 5A1E, Cell Signaling), PCNA (1:200, sc-56, Santa Cruz Biothechonlogies), F4/80 (1:50, BM8, Invitrogen), CD107a (1:50, Biolegend), p-ERK (1:50, Cell Signaling) and visualized with biotinylated anti-rabbit or anti-rat secondary antibodies (Cell Signaling or Vector Labs), as previously described. Signal was detected using a DAB substrate (Cell Signaling) following the manufacturer’s recommendations. Sections were counterstained with hematoxylin (Vector Labs).
# [5] = Oral exposure of MSU-42011 in diet for 4 days (LC-MS of plasma and lung homogenates); conditions: mice fed 100 mg/kg of diet (~25 mg/kg body weight) for 4 days
# Description: Based on the data from the in vitro screening assays, the novel rexinoid MSU-42011 was selected for testing in vivo because of its potent iNOS suppression, low SREBP induction, and activation of RXRα. Before starting efficacy studies, the oral exposure of MSU-42011 was measured in vivo. Mice were fed diet containing MSU-42011 (100 mg/kg of diet or ~ 25 mg/kg body weight) for 4 days. Plasma and lung homogenates were analyzed by liquid chromatography-mass spectrometry. Adjusted steady state concentrations of MSU-42011 were 78 nM in the plasma and 72 nM in the lung, which are similar to values observed with other rexinoids that are effective in a preclinical model of lung cancer.
# as §1, with “The mobile phase A consisted of 10 mM aq. ammonium acetate and the mobile phase B consisted of methanol. The following gradient was applied 99–5% A (0–4 min), 5% A (4–5.1 min), 5–99% A (5.1–6 min).” left out, “A standard curve was prepared by processing plasma from untreated animals and spiking the samples with 0.1–3 μM of the appropriate rexinoid then reconstituting the samples.” left out
# [6] = Lipid levels in plasma (triglyceride and cholesterol kits); conditions: 100 mg/kg diet for 12 weeks, n = 8, mean ± SE
# Description: Triglyceride and cholesterol levels in plasma (n = 8 mice/group) harvested at necropsy were measured using the Triglyceride Quantification Assay Kit (Abcam) or the Cholesterol Quantification Kit (Sigma-Aldrich), respectively, using the recommended protocol supplied by the manufacturer.
# Kras-driven lung tumors [7] = experiment: Treatment of established vinyl carbamate-induced lung adenocarcinomas in A/J mice
# Description: All experiments were performed ethically in accordance with the best practices and AAALAC-accredited Standards for the Management of Laboratory Animals at Michigan State University (MSU). These standards include making every effort to minimize suffering. Mice were euthanized by inhalation of carbon dioxide followed by removal of the lungs. All animal protocols were approved by the Institutional Animal Care and Use Committee (IACUC, protocol 201,800,050)) at MSU. At 7 and 8 weeks of age, A/J female mice (Jackson Laboratories) were injected i.p. with vinyl carbamate (Toronto Research Chemicals, 0.32 mg/mouse). Mice were fed a semi-synthetic diet (AIN-93G BioServ, Flemington NJ), beginning one week before initiation with vinyl carbamate and then for 8 weeks after the first injection. The mice were then randomized into groups (n = 15 mice/group) and fed treatment diets (100 mg rexinoid/kg AIN-93G diet or ~ 25 mg/kg body weight) for 12 weeks. Rexinoids were dissolved in a vehicle of 12.5 ml ethanol and 37.5 ml Neobee oil (Spectrum Chemical, Gardena CA) per kg AIN-93G diet. Six total doses of paclitaxel (Fisher; 15 mg/kg i.p.) and then carboplatin (Fisher; 50 mg/kg i.p.) were given every other week, beginning 9 weeks after injection with vinyl carbamate. After 12 weeks on the treatment diets, blood and lungs were harvested. Lungs were inflated with PBS and surface lesions counted. The left lung was fixed in neutral-buffered formalin (NBF), then sample numbers blinded and randomized. Grossly visible lung tumors on the surface of the left lung were counted. The left lung was embedded in paraffin, step-sectioned (6 sections/lung, 200 microns apart) and then stained with Haemotoxylin and Eosin (H&E). The number, size, and histopathology of tumors on the slides were then evaluated as described. The right lobes of the lung were divided into halves. One half was analyzed by flow cytometry and the other half flash frozen (CO2 and ethanol bath) and stored at − 80 °C.
# At 11, 15, and 20 weeks after initiation, anesthesia was induced using 2–4% isofluorane in oxygen at 0.8–2 L/min in a chamber and then maintained using 1.5–2% isofluorane in oxygen at 0.8 L/min using a nosecone. Animals were kept on a heating pad or a heated platform while under anesthesia. Fur was removed from the thoracic area using a chemical depilitory (Nair) immediately prior to imaging. A Vevo 2100 (Fujifilm VisualSonics) high-frequency ultrasound with a MS550D 40 MHz transducer was used to image lung tumors.
# [8] = rexinoids 100 mg/kg diet 12 weeks, C/P i.p. x6
# [9] = rexinoids 100 mg/kg diet 12 weeks, C/P i.p. x6, mean ± SE
# [10] = tumor histopathology, 12 weeks of treatment
smiles,measurement,setting,value
CC(C)CN(c1cc(C(C)(C)C)cc(C(C)(C)C)c1)c1ccc(C(=O)O)cn1,Total and alveolar macrophages in the lungs,[1],did not alter
same,Drug levels in plasma,[2],97.4 ± 13.3 nM
same,Growth / proliferation of A549 lung cancer cells,A549 lung cancer cells,no effect
same,Growth / proliferation of A549 lung cancer cells,A549 lung cancer cells; listed as 42011,do not inhibit proliferation
same,IC50,iNOS,158 nM
same,Mouse weights during the study,[3],gained weight as expected
same,Histological organization of tumors (H&E),Kras-driven lung tumors [4],loss of cells and increased acellular space within the tumor borders
same,PCNA immunohistochemistry (cell proliferation) in tumors compared to control and bexarotene groups,Kras-driven lung tumors [4],fewer actively proliferating cells
same,p-ERK in tumors,Kras-driven lung tumors [4]; vs control and bexarotene groups (with or without C/P),markedly decreased
same,Adjusted steady state concentration in the lung,[5],72 nM
same,Adjusted steady state concentration in the plasma,[5],78 nM
same,Cholesterol in plasma,[6],1.4 ± 0.05 µg/µL
same,Triglycerides in plasma,[6],1.39 ± 0.11 nmol/µL
same,Cholesterol in plasma,[6]; listed as MSU 42011,1.4 ± 0.05 µg/µL
same,Triglycerides in plasma,[6]; listed as MSU 42011,1.39 ± 0.11 nmol/µL
same,Tumors upon gross observation of lungs compared to the bexarotene and control groups,"Kras-driven lung tumors [7]; 100 mg/kg diet, 12 weeks",markedly fewer tumors
same,Average # tumors/slide,"Kras-driven lung tumors [7]; rexinoids 100 mg/kg diet 12 weeks, C 50 mg/kg and P 15 mg/kg i.p. x6, mean ± SE",2.7 ± 0.3
same,Average # tumors/slide (% control),Kras-driven lung tumors [7]; [8],64%
same,Average tumor size (% control),Kras-driven lung tumors [7]; [8],73%
same,Average tumor burden,Kras-driven lung tumors [7]; [9],0.43 ± 0.08 mm^3
same,Average tumor size,Kras-driven lung tumors [7]; [9],0.16 ± 0.02 mm^3
same,# High grade tumors,Kras-driven lung tumors [7]; [10],50
same,# Low grade tumors,Kras-driven lung tumors [7]; [10],7
same,# Medium grade,Kras-driven lung tumors [7]; [10],24
same,Low grade tumors (% total),Kras-driven lung tumors [7]; [10],9%
same,Medium grade (% total),Kras-driven lung tumors [7]; [10],29%
